Results: PubChem BioAssay AID588692 (Broad Institute, 2011)
This is a selection; strong and weak results do not stand in their true shares. Active and inactive are the calls of the source.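 How the source made its calls: active means mean luciferase reporter signal, scaled so untreated is 0 and the glycosylation-blocking control 100, at or above a set limit in every replicate; inconclusive means mean reaches the limit but not every replicate does; inactive means mean below the limit.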

Assay: D54 reporter luminescence gain compounds – D54 ERlucT cells, set 2, N-linked glycosylation inhibitor project, primary screen (AID 588692);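 further: luciferase carries N-glycosylation sites so blocking glycosylation raises the light; 0% = median of neutral control wells and 100% = median of 100 nM tunicamycin wells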
Settings: D54 ERlucT glycosylation luciferase reporter, 24 h; at 12.5 µM; stronger effect = higher value; percent of 100 nM tunicamycin response

| SMILES | reporter increase |
| --- | --- |
| O=C(NCC1(N2CCCCC2)CCCCC1)c1ccc(OC(F)F)cc1 | inactive: -7.72% |
| CC(C)(C)n1nnnc1C(c1ccccc1OC(F)(F)F)N1CCC(n2c(=O)[nH]c3ccccc32)CC1 (configuration not stated) | inactive: -3.29% |
| O=C(NCC1(N2CCCCC2)CCCCC1)c1cccc([N+](=O)[O-])c1 | inactive: -7.68% |
| CSc1ccc(C(=O)NCC2(N3CCOCC3)CCCCC2)cc1 | inactive: -5.54% |
| N#CC1(Nc2ccccc2)CCN(CCc2ccccc2)CC1 | inactive: 0.235% |
| O=c1[nH]c2ccccc2n1C1CCN(C(c2ccccc2OC(F)(F)F)c2nnnn2C2CCCC2)CC1 (configuration not stated) | inactive: -4.81% |
| CCN1CCC(Nc2ccc(Cl)cc2)CC1 | inactive: 0.439% |
| O=C(NCC1(N2CCCCC2)CCCCC1)c1cccc(C(F)(F)F)c1 | inactive: -5.09% |
| CCCCn1nnnc1C(c1cccc2ccccc12)N1CCC(n2c(=O)[nH]c3ccccc32)CC1 (configuration not stated) | inactive: -7.06% |
| COc1ccc(NC2CCN(C(=O)OC(C)(C)C)CC2)cc1 | inactive: 0.181% |
| CC(C)c1ccc(C(=O)NCC2(N3CCOCC3)CCCCC2)cc1 | inactive: -7.23% |
| CN1CCN(CCOC(=O)C(O)(c2ccccc2)c2ccccc2)CC1 | inactive: 1.81% |
| O=C(NCC1(N2CCOCC2)CCCCC1)c1cc(=O)[nH]c2ccccc12 | inactive: -1.08% |
| COc1cc(C(=O)NCC2(N3CCCCC3)CCCCC2)ccc1OC(F)F | inactive: -7.34% |
| CN(C)c1cccc(C(=O)NCC2(N3CCCCC3)CCCCC2)c1 | inactive: -6.63% |
| COc1ccc(CN(CCCl)CCCl)cc1Cl | inactive: 1.61% |
| CCCCn1nnnc1C(c1ccccc1OC(F)(F)F)N1CCC(n2c(=O)[nH]c3ccccc32)CC1 (configuration not stated) | inactive: -2.07% |
| CC(C)c1ccc(NC2CCN(C(=O)OC(C)(C)C)CC2)cc1 | inactive: -3.99% |
| CCCCn1nnnc1C(c1ccnc2ccccc12)N1CCC(n2c(=O)[nH]c3ccccc32)CC1 (configuration not stated) | inactive: -6.68% |
| CCC(c1nnnn1C(C)(C)C)N1CCC(n2c(=O)[nH]c3ccccc32)CC1 (configuration not stated) | inactive: 1.36% |
| O=C(NCC1(N2CCOCC2)CCCCC1)c1cc(F)c(F)cc1Cl | inactive: -1.2% |
| COc1cc(OC)c(C(=O)NCC2(N(C)C)CCCCC2)cc1OC | inactive: 0.722% |

| SMILES | reporter increase |
| --- | --- |
| O=C(NCC1(N2CCCCC2)CCCCC1)c1cncc(Br)c1 | inactive: -4.21% |
| CN1CCC(Nc2cccc(F)c2)CC1 | inactive: 0.125% |
| CCCOc1ccc(C(=O)NCC2(N(C)C)CCCCC2)cc1OC | inactive: -2.8% |
| Cc1ccc(C(=O)NCC2(N(C)C)CCCCC2)o1 | inactive: 0.0955% |
| COc1ccc(C(c2nnnn2C2CCCC2)N2CCC(n3c(=O)[nH]c4ccccc43)CC2)cc1 (configuration not stated) | inactive: -3.19% |
| CCCCn1nnnc1C(c1cccs1)N1CCC(n2c(=O)[nH]c3ccccc32)CC1 (configuration not stated) | inactive: -2.34% |
| CCCCn1nnnc1C(CC)N1CCC(n2c(=O)[nH]c3ccccc32)CC1 (configuration not stated) | inactive: 3.84% |
| O=C(NCC1(N2CCCCC2)CCCCC1)c1cccs1 | inactive: -5.28% |
| O=C(NCC1(N2CCCCC2)CCCCC1)c1ccc(=O)[nH]c1 | inactive: -3.45% |
| CCC(c1nnnn1C1CCCC1)N1CCC(n2c(=O)[nH]c3ccccc32)CC1 (configuration not stated) | inactive: -0.241% |
| COc1ccc(C(=O)NCC2(N3CCCCC3)CCCCC2)c(OC)c1OC | inactive: -3.54% |
| CC(C)(C)OC(=O)N1CCC(N(C(=O)c2ccccc2)c2ccc(F)cc2)CC1 | inactive: -2.15% |
| COc1ccc(C(=O)NCC2(N3CCCCC3)CCCCC2)cc1 | inactive: -4.05% |
| Cc1cccc(NC2(C#N)CCN(Cc3ccccc3)CC2)c1 | inactive: 1.26% |
| CSc1ccccc1C(=O)NCC1(N2CCCCC2)CCCCC1 | inactive: -4.28% |
| O=C(NCC1(N2CCOCC2)CCCCC1)c1cc2ccccc2o1 | inactive: -4.11% |
| Cc1cc(C)cc(N(C(=O)c2ccccc2)C2CCN(C(=O)OC(C)(C)C)CC2)c1 | inactive: -2.39% |
| O=c1[nH]c2ccccc2n1C1CCN(C(c2ccccc2OC(F)(F)F)c2nnnn2C2CCCCC2)CC1 (configuration not stated) | inactive: -2.8% |
| O=C(NCC1(N2CCCCC2)CCCCC1)c1ccc(Cl)nc1 | inactive: -6.21% |
| CCCCn1nnnc1C(c1ccc(OC)cc1)N1CCC(n2c(=O)[nH]c3ccccc32)CC1 (configuration not stated) | inactive: 0.307% |
| CCOC(=O)N1CCC(Nc2ccc(OC)cc2)CC1 | inactive: -0.66% |
| COc1ccc(Cl)cc1C(=O)NCC1(N2CCOCC2)CCCCC1 | inactive: -0.96% |

| SMILES | reporter increase |
| --- | --- |
| O=c1[nH]c2ccccc2n1C1CCN(C(c2cc3ccccc3o2)c2nnnn2C2CCCCC2)CC1 (configuration not stated) | inactive: -1.67% |
| O=C(OC1CN2CCC1CC2)C1c2ccccc2Oc2ccccc21 (configuration not stated) | inactive: 0.996% |
| O=C(NCC1(N2CCCCC2)CCCCC1)c1ccc(Cl)s1 | inactive: -5.26% |
| N#CC1(Nc2ccccc2)CCN(Cc2ccccc2)CC1 | inactive: -1.31% |
| CCOc1ccc(C)cc1CN(CCCl)CCCl | inactive: -0.171% |
| O=C1CCN(Cc2ccccc2)CC1 | inactive: 1.17% |
| CC(C)(C)n1nnnc1C(c1ccccc1)N1CCC(n2c(=O)[nH]c3ccccc32)CC1 (configuration not stated) | inactive: -1.64% |
| CCOC(=O)N1CCC(Nc2ccc(F)cc2)CC1 | inactive: 0.786% |
| COc1ccc(NC2CCN(CCc3ccccc3)CC2)c(OC)c1 | inactive: 1.82% |
| O=C(NCC1(N2CCCCC2)CCCCC1)c1ccc(F)cc1 | inactive: -5.21% |
| CCCCOc1ccc(C(=O)NCC2(N3CCOCC3)CCCCC2)cc1 | inactive: -8.51% |
| CCCCn1nnnc1C(c1cc2ccccc2o1)N1CCC(n2c(=O)[nH]c3ccccc32)CC1 (configuration not stated) | inactive: -6.62% |
| O=P1(N(CCCl)CCCl)SCCCS1 | inactive: 0.19% |
| O=c1[nH]c2ccccc2n1C1CCN(C(c2ccccc2)c2nnnn2C2CCCCC2)CC1 (configuration not stated) | inactive: -3.83% |
| O=c1[nH]c2ccccc2n1C1CCN(C(c2cccc3ccccc23)c2nnnn2C2CCCC2)CC1 (configuration not stated) | inactive: -10.4% |
| COc1cc(C(=O)NCC2(N(C)C)CCCCC2)ccc1OC(F)F | inactive: -2.38% |
| CCOC(=O)N1CCC(Nc2cccc(C)c2)CC1 | inactive: -0.0725% |
| O=c1[nH]c2ccccc2n1C1CCN(C(c2ccnc3ccccc23)c2nnnn2C2CCCCC2)CC1 (configuration not stated) | inactive: -4.32% |
| COc1cc(OC)cc(C(=O)NCC2(N3CCCCC3)CCCCC2)c1 | inactive: -5.18% |
| CCC(c1nnnn1C1CCCCC1)N1CCC(n2c(=O)[nH]c3ccccc32)CC1 (configuration not stated) | inactive: -1.64% |
| CC(=O)N(c1ccccc1)C1CCNCC1 | inactive: -1.31% |
| COc1cccc(C(c2nnnn2C2CCCCC2)N2CCC(n3c(=O)[nH]c4ccccc43)CC2)c1OC (configuration not stated) | inactive: -8.11% |

| SMILES | reporter increase |
| --- | --- |
| Cc1ccc(NC2(C#N)CCN(Cc3ccccc3)CC2)cc1 | inactive: 1.06% |
| Fc1ccccc1NC1CCN(Cc2ccccc2)CC1 | inactive: -0.25% |
| Cc1ccc(C(=O)NCC2(N3CCCCC3)CCCCC2)o1 | inactive: -3.33% |
| CC(C)(C)n1nnnc1C(c1ccnc2ccccc12)N1CCC(n2c(=O)[nH]c3ccccc32)CC1 (configuration not stated) | inactive: -5.62% |
| COc1ccc(C(c2nnnn2C2CCCCC2)N2CCC(n3c(=O)[nH]c4ccccc43)CC2)cc1 (configuration not stated) | inactive: -3.07% |
| CCN1CCC(Nc2cccc(F)c2)CC1 | inactive: 1.76% |
| Cc1ccccc1NC1(C#N)CCN(Cc2ccccc2)CC1 | inactive: 1.59% |
| Cn1c(=O)[nH]cc(N(CCCl)CCCl)c1=O | inactive: 0.872% |
| CN(C)c1ccc(C(=O)NCC2(N3CCCCC3)CCCCC2)cc1 | inactive: -5.4% |
| O=C(NCC1(N2CCCCC2)CCCCC1)c1ccco1 | inactive: -4.54% |
| CN1CCC(Nc2ccc(F)c(Cl)c2)CC1 | inactive: -1.29% |
| CCOc1ncccc1C(=O)NCC1(N2CCOCC2)CCCCC1 | inactive: -2.73% |
| CCCOc1ccc(C(=O)NCC2(N(C)C)CCCCC2)cc1 | inactive: -1.61% |
| O=c1[nH]c2ccccc2n1C1CCN(C(c2cc3ccccc3o2)c2nnnn2C2CCCC2)CC1 (configuration not stated) | inactive: -7.04% |
| O=C(O)C1(Nc2ccccc2)CCN(Cc2ccccc2)CC1 | inactive: -1.95% |
| CC(C)(C)OC(=O)N1CCC(Nc2ccccc2)CC1 | inactive: 1.54% |
| CCC(CO)(C(=O)OC1CN2CCC1CC2)c1ccccc1 (configuration not stated) | inactive: -1.43% |
| COc1cccc(C(=O)N(c2cc(C)cc(C)c2)C2CCN(C(=O)OC(C)(C)C)CC2)c1 | inactive: -3.23% |
| COc1cc(OC)cc(C(=O)NCC2(N3CCOCC3)CCCCC2)c1 | inactive: -3.63% |
| COc1cccc(C(c2nnnn2C2CCCC2)N2CCC(n3c(=O)[nH]c4ccccc43)CC2)c1OC (configuration not stated) | inactive: -4.07% |
| CN1CCC(Nc2ccc(Cl)cc2)CC1 | inactive: -1.56% |
| O=C(NCC1(N2CCOCC2)CCCCC1)c1cc(Br)ccc1Cl | inactive: 1.48% |

| SMILES | reporter increase |
| --- | --- |
| COc1cc(C(=O)NCC2(N3CCOCC3)CCCCC2)cc(OC)c1C | inactive: -2.43% |
| CCCCn1nnnc1C(c1ccccc1)N1CCC(n2c(=O)[nH]c3ccccc32)CC1 (configuration not stated) | inactive: -3.89% |
| O=c1[nH]c2ccccc2n1C1CCN(C(c2ccnc3ccccc23)c2nnnn2C2CCCC2)CC1 (configuration not stated) | inactive: -5.2% |
| COc1ccc(C(=O)NCC2(N3CCOCC3)CCCCC2)cc1OC | inactive: -8.97% |
| O=c1[nH]c2ccccc2n1C1CCN(C(c2cccs2)c2nnnn2C2CCCCC2)CC1 (configuration not stated) | inactive: -0.674% |
| N/C(=N\O)c1c(N)no[n+]1[O-] | inactive: 1.91% |
| COc1cccc(C(c2nnnn2C(C)(C)C)N2CCC(n3c(=O)[nH]c4ccccc43)CC2)c1OC (configuration not stated) | inactive: -2.54% |
| CCOC(=O)N1CCC(Nc2ccc(C)cc2)CC1 | inactive: 0.735% |
| CCCCn1nnnc1C(c1cccc(OC)c1OC)N1CCC(n2c(=O)[nH]c3ccccc32)CC1 (configuration not stated) | inactive: -5.37% |
| O=c1[nH]c2ccccc2n1C1CCN(C(c2cccs2)c2nnnn2C2CCCC2)CC1 (configuration not stated) | inactive: -2.83% |
| O=C(OC1CN2CCC1CC2)C1c2ccccc2C=Cc2ccccc21 (configuration not stated) | inactive: 2.62% |
| CC(C)(C)OC(=O)N1CCC(N(C(=O)c2ccccc2)c2ccc(Cl)cc2)CC1 | inactive: -4.33% |
| N#Cc1ccc(C(=O)NCC2(N3CCCCC3)CCCCC2)cc1 | inactive: -6.12% |
| CCCN1CCC(Nc2cc(OC)cc(OC)c2)CC1 | inactive: -2.78% |
| O=c1[nH]c2ccccc2n1C1CCN(C(c2ccccc2)c2nnnn2C2CCCC2)CC1 (configuration not stated) | inactive: -1.71% |
| Cc1cc(N(CCCl)CCCl)ccc1C=O | inactive: -1.78% |
| c1ccc(CN2CCC(Nc3ccccc3)CC2)cc1 | inactive: -0.484% |
| CN(C)C1(CNC(=O)c2cccc(C#N)c2)CCCCC1 | inactive: -0.969% |
| CC(C)(C)n1nnnc1C(c1cccc2ccccc12)N1CCC(n2c(=O)[nH]c3ccccc32)CC1 (configuration not stated) | inactive: -11% |
